{"sequences": {"note": "The chains behind the UniProt entries cited, without tags or fusion partners. Where a name states a change or a piece, a line headed by the entry shows the natural chain unless it says otherwise.", "UniProt Q96LB2": "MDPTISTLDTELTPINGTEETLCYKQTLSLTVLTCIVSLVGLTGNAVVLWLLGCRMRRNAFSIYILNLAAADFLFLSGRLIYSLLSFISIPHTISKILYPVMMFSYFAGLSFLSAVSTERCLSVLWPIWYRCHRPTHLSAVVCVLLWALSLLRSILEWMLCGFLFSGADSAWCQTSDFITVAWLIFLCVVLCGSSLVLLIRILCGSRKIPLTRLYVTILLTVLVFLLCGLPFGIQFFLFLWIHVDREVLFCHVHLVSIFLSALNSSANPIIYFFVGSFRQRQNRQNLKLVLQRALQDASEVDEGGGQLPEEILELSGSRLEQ"}, "source": "PubChem BioAssay AID588676", "about": "(Johns Hopkins Ion Channel Center, 2011)", "note": "The list shows a part of the results, in another mix than the full data. The source made the active and inactive calls.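 The calls were made as follows: active = calcium-response B-score plate-corrected more than 3 library SD below zero, starting fluorescence within 5 deviations, no agonist response on first addition; inactive = the rest.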", "data": [{"molecular_target": "Mas-related G-protein coupled receptor member X1 (Homo sapiens) (UniProt Q96LB2)", "assay": "antagonists of human MrgX1 receptor, primary screen, HEK293 cells, Fluo-4 calcium flux (AID 588676);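 also: peak minus trough fluorescence over baseline after final BAM8-22 challenge near maximal dose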", "details": "Fluo-4, BAM8-22 antagonism, at 10 µM, active compounds read low", "values": [{"smiles": "CCc1nc2c(n1)c1c(non1O)c1c2no[n+]1[O-]", "B-score": "active: -4.84"}, {"smiles": "O=[N+]([O-])c1ccc(O)c(/C=N/Nc2ccc([N+](=O)[O-])cc2[N+](=O)[O-])c1", "B-score": "active: -4.84"}]}]}
